# Assay results published in patent US11077170B2, “Antimicrobial peptide from skate skin and uses thereof” (INDUSTRY-ACADEMIC COOPERATION FOUNDATION, CHOSUN UNIVERSITY, priority 2017, dated 2021).
# Test system: human erythrocytes
# Assay: Erythrocyte hemolytic activity
# Assay type: cell-based
# Details: 3.125 μM, 1 hour at 37° C., absorbance 414 nm, Triton X-100 = 100%
# Procedure: To determine the cytotoxicity of the peptide, the erythrocyte hemolytic activity was measured as described below.
# Specifically, human erythrocytes were washed 3 times with PBS (phosphate-buffered saline, pH 7.0) buffer solution, and then 8.0% erythrocyte solution diluted with PBS buffer was loaded in an amount of 10042 to each wall of a 96-well microtiter plate. Then, the peptide solution of the present invention was mixed therein at a concentration of 1.5, 3.125, 6.25, 12.5, 25, 50, 100, or 200 μM/well, followed by culture for 1 hour at 37° C. After that, the absorbance at a wavelength of 414 nm was measured. As a control group, melittin as a known antimicrobial peptide was treated at the same concentrations. By setting the absorbance of a treatment with 0.1% Triton X-100 at 100% as a control group that is served as a reference of hemolysis level of erythrocytes, the hemolysis rate of each peptide, i.e., hemolysis, was calculated using the following mathematical formula 1. Erythrocyte disrupting ability (%)=(Absorbance A−Absorbance B)/(Absorbance C−Absorbance B)×100 [Mathematical formula 1] […]
smiles,measurement,value
CC[C@H](C)[C@H](NC(=O)CN)C(=O)NCC(=O)N[C@@H](C)C(=O)N[C@H](C(=O)N[C@@H](CC(C)C)C(=O)N[C@@H](CCCCN)C(=O)N[C@H](C(=O)N[C@@H](CC(C)C)C(=O)N[C@H](C(=O)N[C@H](C(=O)NCC(=O)N[C@@H](CC(C)C)C(=O)N1CCC[C@H]1C(=O)N[C@@H](C)C(=O)N[C@@H](CC(C)C)C(=O)N[C@H](C(=O)N[C@@H](CO)C(=O)N[C@@H](Cc1c[nH]c2ccccc12)C(=O)N[C@H](C(=O)N[C@@H](CCCCN)C(=O)N[C@@H](CCCNC(=N)N)C(=O)N[C@@H](CCCCN)C(=O)N[C@@H](CCCNC(=N)N)C(=O)N[C@@H](CCC(N)=O)C(=O)N[C@@H](CCC(N)=O)C(N)=O)[C@@H](C)CC)[C@@H](C)CC)[C@@H](C)O)[C@@H](C)O)C(C)C)C(C)C [melittin],hemolytic activity (hemolysis rate),at least 55%
